# Source: PubChem BioAssay AID651718 (The Scripps Research Institute Molecular Screening Center, 2012)
# The list shows a part of the results, in another mix than the full data. Activity calls are given as the source filed them. Rule as the data show it: active = inhibition above about 4.5%; inactive = the rest.
# Test system: Methionine sulfoxide reductase A (Bos taurus)
# Test: bovine MsrA enzyme inhibitors, primary screen, biochemical, absorbance, HTS (AID 651718);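 also: 0% = vehicle wells with enzyme and 100% = reference inhibitor wells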
# Conditions: purified bovine MsrA, absorbance read-out; at 15.5 µM; active compounds read high
row,Compound,inhibition
1,O=[N+]([O-])c1cc([N+](=O)[O-])c(Nc2cccnc2)c([N+](=O)[O-])c1,inactive: 3.89%
2,O=[N+]([O-])c1ccc2c(c1)C=Nc1ccccc1O2,inactive: 0.46%
3,CC(C)(C)c1ccc(OP(C)(=O)Nc2ccc(SC(F)(F)F)cc2)cc1 (centres undefined),inactive: 1.6%
4,Cc1cccc(C)c1OP(C)(N)=O (centres undefined),inactive: 0.67%
5,COc1ccccc1OP(C)(=O)Nc1ccc(C)cc1 (centres undefined),inactive: 0.16%
6,Cc1ccc(NP(C)(=O)Oc2ccccc2)c(C)c1 (centres undefined),inactive: -0.21%
7,CCOC(=O)c1ccc(NP(C)(=O)Oc2ccccc2)cc1 (centres undefined),inactive: 0.76%
8,Cc1cc(C)cc(OP(C)(N)=O)c1 (centres undefined),inactive: 0.88%
9,COc1ccccc1OP(C)(=O)Nc1cc(Cl)ccc1C (centres undefined),inactive: -0.04%
10,COc1ccc(OP(C)(=O)Nc2cccc(F)c2)cc1 (centres undefined),inactive: -0.63%
11,CCN(CC)CCCOC(=O)C(O)(c1ccccc1)c1ccccc1,inactive: -0.37%
12,COc1ccccc1-c1ccccn1.O=[N+]([O-])c1cc([N+](=O)[O-])c(O)c([N+](=O)[O-])c1,inactive: 2.95%
13,CP(=O)(Nc1ccc(SC(F)(F)F)cc1)Oc1ccc(Cl)cc1 (centres undefined),inactive: 0.84%
14,Cc1cccc(C)c1OP(C)(=O)Nc1ccc(SC(F)(F)F)cc1 (centres undefined),inactive: 0.84%
15,CP(=O)(Oc1ccccc1)OC(c1ccccc1)C(F)(F)F (centres undefined),inactive: -0.4%
16,CCc1ccc(OP(C)(=O)N2CCN(c3ccc([N+](=O)[O-])cc3)CC2)cc1 (centres undefined),inactive: 2.56%
17,CP(=O)(NC(=O)Nc1ccccc1)Oc1ccccc1 (centres undefined),inactive: -0.59%
18,Cc1cc(C)cc(OP(C)(=O)Nc2ccc(SC(F)(F)F)cc2)c1 (centres undefined),inactive: 1.39%
19,O=[N+]([O-])c1cc([N+](=O)[O-])c(O)c([N+](=O)[O-])c1.c1ccc(Oc2ccncc2)cc1,inactive: 3.99%
20,CCOC(=O)c1ccc(NP(C)(=O)Oc2ccc(OC)cc2)cc1 (centres undefined),inactive: -1.02%
21,CCOP(C)(=S)SCC(=O)NC(C)C(=O)O (centres undefined),inactive: -0.75%
22,CP(=O)(Nc1ccccn1)Oc1ccc(Cl)cc1 (centres undefined),inactive: 0.91%
23,CP(=S)(Nn1cnnc1)Oc1ccccc1 (centres undefined),inactive: -1.51%
24,CP(=O)(Nc1ccccc1Br)Oc1ccccc1 (centres undefined),inactive: 0.5%
25,COc1ccccc1OP(C)(=O)Nc1ccccc1 (centres undefined),inactive: -0.51%

row,Compound,inhibition
1,O=[N+]([O-])c1cc([N+](=O)[O-])c(Nc2nnnn2CCO)c([N+](=O)[O-])c1,inactive: 0.39%
2,CCOC(=O)C(CC)C1=NC(C)(C)Cc2ccccc21.O=[N+]([O-])c1cc([N+](=O)[O-])c(O)c([N+](=O)[O-])c1 (centres undefined),inactive: 2.66%
3,CN1CCCCC1COC(=O)C1(O)c2ccccc2CCc2ccccc21 (centres undefined),inactive: 0.44%
4,COc1ccccc1OP(C)(=O)Nc1c(C)cccc1C (centres undefined),inactive: -0.74%
5,COc1ccc(-c2ccccn2)cc1.O=[N+]([O-])c1cc([N+](=O)[O-])c(O)c([N+](=O)[O-])c1,inactive: 3.05%
6,CP(=O)(Nc1ccc(SC(F)(F)F)cc1)Oc1ccccc1 (centres undefined),inactive: -0.75%
7,CCCOc1ccc(NP(C)(=O)Oc2ccc(Cl)cc2)cc1 (centres undefined),inactive: 0.47%
8,O=[N+]([O-])c1cc([N+](=O)[O-])c(-n2nnc3ccccc32)c([N+](=O)[O-])c1,inactive: 3.8%
9,CN(Cc1cccnc1)C(=O)COc1ccc(Cl)c(Cl)c1.O=[N+]([O-])c1cc([N+](=O)[O-])c(O)c([N+](=O)[O-])c1,active: 4.98%
10,O=[N+]([O-])c1cc([N+](=O)[O-])c(-c2cnn(-c3ccccc3)c2)c([N+](=O)[O-])c1,inactive: 2.04%
11,Cc1nc2ccc3ccccc3c2s1.O=[N+]([O-])c1cc([N+](=O)[O-])c(O)c([N+](=O)[O-])c1,active: 6.83%
12,COc1ccccc1OP(C)(=O)Nc1cccc(Br)c1 (centres undefined),inactive: 0.97%
13,CCOC(=O)c1ccc(NP(C)(=O)Oc2cc(C)cc(C)c2)cc1 (centres undefined),inactive: -0.36%
14,Cc1cc(C)cc(OP(C)(=O)Nc2ccc(C)cc2C)c1 (centres undefined),inactive: 0.08%
15,Cc1ccc(C)c(NP(C)(=O)Oc2ccccc2)c1 (centres undefined),inactive: 0.56%
16,CP(=O)(Nc1cccc(Br)c1)Oc1ccccc1 (centres undefined),inactive: 0.09%
17,Cc1cc(C)cc(OP(C)(=O)Nc2ccccn2)c1 (centres undefined),inactive: -0.62%
18,O=C(O)c1cccc(Nc2c([N+](=O)[O-])cc([N+](=O)[O-])cc2[N+](=O)[O-])c1,inactive: 3.11%
19,CC1=NCCc2c1[nH]c1ccccc21.O=[N+]([O-])c1cc([N+](=O)[O-])c(O)c([N+](=O)[O-])c1,inactive: 3.16%
20,CCN(CC)CCCNc1ccccc1[N+](=O)[O-].O=[N+]([O-])c1cc([N+](=O)[O-])c(O)c([N+](=O)[O-])c1,inactive: 2.04%
21,CCOC(=O)c1ccc(NP(C)(=O)Oc2ccc(F)cc2)cc1 (centres undefined),inactive: 1.57%
22,COc1ccc(OP(C)(=O)Nc2ccc(SC(F)(F)F)cc2)cc1 (centres undefined),inactive: -0.26%
23,Cc1c([N+](=O)[O-])cc([N+](=O)[O-])c(Br)c1[N+](=O)[O-],inactive: 3.67%
24,CCN(CC)CCCOC(=O)C(O)(c1ccccc1)C1CCCCC1 (centres undefined),inactive: -0.13%
